{"source": "patent US11046721B2", "about": "“Ruthenium-based photolinkers and methods of use” (The Trustees of the University of Pennsylvania, priority 2014, dated 2021)", "key": {"[1]": {"system": "zebrafish embryos", "test": "Control injections (RuBEP, scramble morpholino) in zebrafish embryos: toxicity and development", "format": "in vivo", "conditions": "injected at 1-cell stage (500 μM), dark or irradiated at 450 nm", "method": "FIG. 31, comprising FIGS. 31A-31C, is a series of images of zebrafish embryos treated with RuBEP+/−light in vivo with control. FIG. 31A is an image depicting an uninjected wildtype zebrafish embryo. FIG. 31B is an image depicting a zebrafish embryo injected at the 1-cell stage with 500 μM RuBEP and incubated in the dark. FIG. 31C is an image depicting a zebrafish embryo injected at the 1-cell stage with 500 μM RuBEP and irradiated (450 nm, 14 mW/cm^2, 15 min).\nFIG. 32, comprising FIGS. 32A-32B, is a series of images of zebrafish embryos treated with scramble morpholino in vivo with control. FIG. 32A is an image depicting an uninjected wildtype zebrafish embryo. FIG. 32B is an image depicting a zebrafish embryo injected at the 1-cell stage with 500 μM standard scramble control morpholino (see sequence, Table S9).\nZebrafish embryos were obtained. All embryos obtained were TLF×TLF WT. Zebrafish embryo injection solutions were prepared to contain a final concentration of 0.1 M KCl and 0.25% phenol red dye. All injections were performed at the one-cell stage and injected into the cell compartment only. A Harvard Apparatus PLI-100 pico-injector was used to inject controlled volumes. Injection volume was calibrated to dispense 5 nL per embryo. Zebrafish embryos were incubated at 28° C. in E3 zebrafish medium. […]"}}, "note": "Where “and” joins values, the source holds several entries; their conditions need not be identical. Equal values may be shown once. Entries after “also recorded” stand apart in the source; their conditions may differ.", "data": [{"substance": "[Ru(bipyridine)2(3-ethynyl- pyridine)2]^2+ [RuBEP]", "values": [{"measurement": "Toxicity / development of injected embryos", "setting": "[1]", "value": "remain healthy and develop normally; also recorded: no toxicity or phenotypic response; also recorded: normal development"}, {"measurement": "Quantum yield of photorelease (ligand exchange)", "setting": "450 nm, in water under ambient oxygen (air)", "value": "0.33 and 0.33+/−0.06 and 0.33±0.06"}, {"measurement": "Uncaging efficiency (ε450 times φ)", "setting": "at 450 nm", "value": 2000, "unit": "M⁻¹ cm⁻¹"}]}]}
